Experimental data: EP0652009A1, “Identification and use of protease inhibitors” (ELI LILLY AND COMPANY, priority 1993, dated 1995)

Sequences of proteins named here, by UniProt entry; tags and fusion partners are left off. Residues count along the entry.
UniProt P07339, 65-412 limits assumed: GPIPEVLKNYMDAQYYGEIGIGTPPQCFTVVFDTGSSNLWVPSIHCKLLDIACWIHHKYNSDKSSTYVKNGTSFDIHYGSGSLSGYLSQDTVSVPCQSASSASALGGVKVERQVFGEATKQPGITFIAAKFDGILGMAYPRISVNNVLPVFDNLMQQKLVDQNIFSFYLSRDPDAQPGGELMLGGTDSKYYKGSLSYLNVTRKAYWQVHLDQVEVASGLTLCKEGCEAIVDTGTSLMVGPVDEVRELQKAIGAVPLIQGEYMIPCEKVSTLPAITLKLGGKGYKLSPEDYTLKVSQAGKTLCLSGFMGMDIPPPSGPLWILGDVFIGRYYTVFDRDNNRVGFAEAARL

Target: Cathepsin D (Homo sapiens, UniProt P07339)
Experiment: Assay 3: cathepsin D inhibition activity (non-cellular assay, chromogenic substrate)
Conditions: cathepsin D from human placental tissue, pH 3.7, 37°C

| Ki | SMILES |
| --- | --- |
| 530 pM | CC[C@H](NC(=O)C[C@H](O)[C@H](CC(C)C)NC(=O)[C@@H](NC(=O)[C@H](Cc1cccc2ccccc12)NC(C)=O)C(C)C)C(=O)N[C@@H](Cc1cccc2ccccc12)C(N)=O |
| 540 pM | CCC[C@H](NC(=O)C[C@H](O)[C@H](CC(C)C)NC(=O)[C@H](CCC)NC(=O)[C@H](Cc1cccc2ccccc12)NC(C)=O)C(=O)N[C@@H](Cc1cccc2ccccc12)C(N)=O |
